## AlphaSeq binding of Ab-95 light chain variants to a spike HR2 peptide

The measurements come from Engelhart et al. 2022 (doi:10.1038/s41597-022-01779-4) through the FLAb antibody collection.

The target is the same throughout: PDVDLGDISGINAS, from the HR2 region of SARS-CoV-2 spike.

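The starting antibody came from a phage panning campaign against this peptide. AAYL52 was designed without a model: most single CDR substitutions and a random sample of double and triple ones. AlphaSeq pools MATa yeast showing the antibodies with MATalpha yeast showing the peptide. Mating (16 h, 30 °C) was followed by selection of diploids and sequencing of their barcodes. A regression on co-assayed BCL2-family reference pairs converts the normalised counts of each replicate to an apparent Kd. Each pool was mated in three replicate cultures.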

Parent scFv Ab-95: VH joined to VL by a (GGGGS)3 linker. Changes lie in the light chain CDRs alone.
VH: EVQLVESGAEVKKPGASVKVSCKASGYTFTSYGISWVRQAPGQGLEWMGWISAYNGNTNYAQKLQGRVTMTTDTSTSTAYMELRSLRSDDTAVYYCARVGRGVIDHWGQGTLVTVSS
VL: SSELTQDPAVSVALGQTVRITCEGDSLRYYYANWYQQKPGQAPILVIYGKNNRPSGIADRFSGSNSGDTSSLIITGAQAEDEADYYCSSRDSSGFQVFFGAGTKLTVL

Each variant is given by its three light chain CDRs, as the data file delimits them; those of the parent are EGDSLRYYYAN, GKNNRPS, SSRDSSGFQVF. Scale: log10 of Kd in nM, estimated from mating counts; low values are strong binders. Replicates are averaged; those with no signal do not enter the mean. A pair that was not seen in that replicate is written "ND"; this usually means weak binding, but a binder can also be missed. In this assay the parent's reference entry averaged 2.31; its copy inside this library read 2.25. As a blank, each scFv also met three strains without target: over library AAYL52, 28% of these pairings were detected, typically at 3.91 and seldom below 2.90. Also given: how often the same scFv was detected with the empty control strains, with their mean in brackets.

CDR-L1	CDR-L2	CDR-L3	log10 Kd (nM) by replicate	mean log10 Kd (nM)	signal with controls
EGDSLRYTYAN	GKGNRPS	SSRDFSGFQVF	1.65 / 1.68 / 0.97	1.44	1 of 9 (3.73)
EGDSLRYDNAN	AKNNRPS	SSRDSSGFQVF	2.23 / 1.62 / 1.25	1.70	0 of 9
EGCSLRYYYAA	EKNNRPS	SSRDSSGFQVF	ND / 4.79 / ND	4.79	3 of 9 (3.90)
EMDSLRYYYAN	GKNNRPS	SSRPSSGFQVV	3.42 / 5.19 / 3.13	3.92	2 of 9 (4.21)
EGDGLRYCYAN	GKNNRPS	QSRDSSGFQVF	4.22 / 3.27 / ND	3.75	2 of 9 (4.66)
HGDSLRYYYAN	GKNNRTS	SLRDSSGFQVF	2.39 / 2.22 / 2.18	2.26	5 of 9 (3.83)
WGDSLRYYYAN	GTNNRPS	SSRDSSGFQVK	3.69 / ND / ND	3.69	1 of 9 (3.28)
EGDSWRYYYAN	GQNNRPS	SSRDCSGFQVF	3.60 / 3.70 / ND	3.65	2 of 9 (4.18)
EFDSLRYYYAN	GFNNRPS	SGRDSSGFQVF	5.50 / ND / 3.99	4.74	0 of 9
EGDSLRYYYAN	YFNNRPS	SSRDSSGKQVF	3.03 / 3.18 / ND	3.11	2 of 9 (4.37)
EGDSLRYYYAN	GKPNHPS	MSRDSSGFQVF	ND / 3.90 / 3.86	3.88	1 of 9 (3.25)
GGDNLRYYVAN	GKNNRPS	SSRDSSGFQVF	4.70 / ND / ND	4.70	0 of 9
EGDSLRYYYAN	GKNNRPS	STRESSWFQVF	2.96 / 2.84 / 2.19	2.66	1 of 9 (3.43)
EKDELRYYYAN	GKNNRPS	SSRCSSGFQVF	3.52 / ND / ND	3.52	1 of 9 (3.80)
VGDSLRYYYAN	GKNNRPS	RSRDSSGFQVF	ND / ND / ND	ND	2 of 9 (3.74)
EGQSLRYYYAN	GQNNFPS	SSRDSSGFQVF	3.30 / 5.41 / 2.77	3.83	2 of 9 (3.24)
EGDKLRYYYAN	GMNNRPS	SSRDSSGFRVF	ND / ND / 3.10	3.10	4 of 9 (3.83)
EGDSLRYYYAN	GKYNNPS	SSRDMSGFQVF	3.95 / 3.92 / 3.86	3.91	7 of 9 (4.36)
EDDSLRYYYIN	GKNNRPS	SLRDSSGFQVF	3.56 / 3.10 / 2.97	3.21	0 of 9
EGDSLNYYYAN	GVNNRPS	SSRDSSGFGVF	2.83 / 3.50 / 3.55	3.29	4 of 9 (3.75)
EGNSLRYYYAN	GKNNRPS	SSIDSSGFYVF	3.38 / ND / ND	3.38	5 of 9 (3.86)
ITDSLRYYYAN	GKNNRPS	SSRDSSGFAVF	3.77 / ND / ND	3.77	3 of 9 (3.78)
EGDSLKYYYAN	GKNVRPS	STRDSSGFQVF	1.88 / 1.87 / 1.51	1.76	6 of 9 (4.02)
EGKSLRYYYAN	GKNNRPS	SSRKSSGFQVF	3.24 / 2.98 / 3.10	3.11	6 of 9 (4.04)
EGDSLLYYYAC	GKNNRPS	ASRDSSGFQVF	1.56 / 1.23 / 0.75	1.18	2 of 9 (4.63)
EGDSLRYYYDN	GKNNYPS	SSRDSSAFQVF	ND / ND / 4.64	4.64	2 of 9 (4.53)
HGDSLRYYYAN	GKNGRPS	SSRDSSGFQVQ	2.88 / 2.53 / 2.46	2.62	5 of 9 (3.81)
EKDSLRYYYAN	GHNNRPS	SSRDSSGFQSF	5.41 / 3.50 / 3.23	4.05	1 of 9 (3.16)
EGDSLRYYYAN	GANLRPS	SSSDSSGFQVF	3.22 / 3.21 / ND	3.22	1 of 9 (4.84)
EGDMLRYYYAN	GKNNRQS	SSRDSSGFMVF	4.74 / ND / 3.83	4.28	4 of 9 (3.54)
EKDSLRYYYAN	GKNNRPS	MSRDSSGFQVF	3.93 / 3.65 / 3.46	3.68	4 of 9 (3.85)
EGDSLMYMYAN	GKNLRPS	SSRDSSGFQVF	1.77 / 1.71 / 1.64	1.71	5 of 9 (4.03)
EGDSLWYYYAS	GKNNRPS	SSRDSSGNQVF	ND / ND / ND	ND	0 of 9
EGDSLRYEEAN	GKNNRPS	SSRDSSEFQVF	2.07 / 2.03 / 1.66	1.92	3 of 9 (3.46)
EGDSWRYYYAN	GKNNRPS	SSGDSSGFQVF	3.66 / 4.31 / 3.56	3.84	4 of 9 (3.44)
EGDSLRYYSAN	GKANRPS	SSWDSSGFQVF	2.22 / 2.59 / 2.71	2.51	1 of 9 (4.75)
EGDVLRYYYAN	GKNNRPS	SSVDSSGFYVF	3.91 / ND / ND	3.91	2 of 9 (3.04)
EQDSLRYYFAN	GKNNRPS	SSRKSSGFQVF	3.38 / ND / ND	3.38	3 of 9 (3.84)
EGDSLRYYNAN	GKNNRPS	SSRDSSGFNVF	1.22 / 1.21 / 0.54	0.99	3 of 9 (5.12)
KGDKLRYYYAN	GKNNRPS	SSRDSSGFQYF	ND / ND / ND	ND	2 of 9 (3.22)
EGDSLRHYYHN	GKNNRPS	SSRDSTGFQVF	2.94 / 2.98 / 4.03	3.32	4 of 9 (4.54)
EGDSLRPYYAN	GKPNRPT	SSRDSSGFQVF	3.77 / ND / ND	3.77	4 of 9 (4.08)
EGDSLLYYYAN	GANNRPS	GSRDSSGFQVF	3.24 / 3.42 / 2.86	3.18	5 of 9 (4.30)
EGDSLRELYAN	NKNNRPS	SSRDSSGFQVF	3.49 / 3.22 / ND	3.35	2 of 9 (3.23)
EGDSLRYYYDN	GKNNRPS	SSRDSSGFQVC	3.55 / ND / ND	3.55	3 of 9 (4.40)
EGDSLVYYYAN	GKNNRPH	GSRDSSGFQVF	3.38 / 2.60 / 3.44	3.14	0 of 9
EGDSLRYYYAN	GKNNQPS	SSIDSSGFQVR	3.47 / ND / ND	3.47	4 of 9 (4.19)
EGDSLRYYYAN	GKNNRPS	SSRDSSGEQVF	2.57 / 2.09 / 2.29	2.32	3 of 9 (3.79)

From the list, the first 3 with no signal in any replicate:

CDR-L1	CDR-L2	CDR-L3	log10 Kd (nM) by replicate	mean log10 Kd (nM)	signal with controls
VGDSLRYYYAN	GKNNRPS	RSRDSSGFQVF	ND / ND / ND	ND	2 of 9 (3.74)
EGDSLWYYYAS	GKNNRPS	SSRDSSGNQVF	ND / ND / ND	ND	0 of 9
KGDKLRYYYAN	GKNNRPS	SSRDSSGFQYF	ND / ND / ND	ND	2 of 9 (3.22)